# Test results: ChEMBL document CHEMBL1147940, “Differential receptor binding characteristics of consecutive phenylalanines in micro-opioid specific peptide ligand endomorphin-2” (Bioorg Med Chem, 2007)
# Chains of the proteins cited; added tags and fusions are not shown.
# UniProt P33535, whole entry: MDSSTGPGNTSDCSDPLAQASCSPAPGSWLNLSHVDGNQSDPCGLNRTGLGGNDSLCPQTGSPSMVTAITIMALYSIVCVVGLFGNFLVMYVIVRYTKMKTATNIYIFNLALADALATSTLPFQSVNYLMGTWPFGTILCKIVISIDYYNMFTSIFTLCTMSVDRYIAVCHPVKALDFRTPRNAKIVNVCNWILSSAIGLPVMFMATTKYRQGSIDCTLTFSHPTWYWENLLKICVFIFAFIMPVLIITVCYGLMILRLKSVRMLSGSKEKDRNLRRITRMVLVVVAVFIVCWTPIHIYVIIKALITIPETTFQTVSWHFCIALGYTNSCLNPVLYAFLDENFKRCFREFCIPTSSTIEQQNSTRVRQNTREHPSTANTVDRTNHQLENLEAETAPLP
# Target: Mu-type opioid receptor (Rattus norvegicus, UniProt P33535)
# Assay: Displacement of [3H]DAGO from mu opioid receptor in rat brain membrane
# Assay type: cell membranes
compound,measurement,value
C[C@@H](NC(=O)[C@@H](N)Cc1ccc(O)cc1)C(=O)NCC(=O)N(C)[C@@H](Cc1ccccc1)C(=O)NCCO [DAMGO],IC50,1.13 nM
